The values that follow come from patent US20250074964A1 (Ambio, Inc., priority 2023, published 2025).

Data set [1] is described as follows: GLP-1 analog stability in formulation (PBS, HPLC). Particulars: for Concentration / HPLC Purity: Injection 1 and 2. The format is physicochemical.
A short description of data set [2]: GLP-1 analog adhesion to plastic (transfer between 5 polypropylene tubes, HPLC). Format: physicochemical. The conditions noted are these: 1.6 μg/mL in PBS.

“And” between values parts separate entries of the source, which are not always exact repeats. Equal values may be shown once.

On to semaglutide, for which the Concentration in data set [1] (A: −80° C., 7 d) was 1000 µg/mL; in data set [1] (B: 4° C., 1 d), 1000 µg/mL; in data set [1] (C: 4° C., 3 d), 1050 µg/mL; in data set [1] (D: 4° C., 7 d), 1000 µg/mL; in data set [1] (Fresh), 1000 µg/mL. In addition, the “HPLC Purity” value is 98.22% and 98.17% in data set [1] (A: −80° C., 7 d); 98.17% in data set [1] (B: 4° C., 1 d); 98.19% and 98.18% in data set [1] (C: 4° C., 3 d); 98.17% and 98.19% in data set [1] (D: 4° C., 7 d); 98.18% and 98.17% in data set [1] (Fresh). The “concentration of the formulation after storage” value in data set [1] (remained consistent over storage) amounted to 1000 µg/mL. In addition, in data set [1] (storage at 4° C. or −80° C. for 7 days (semaglutide: 4° C. for 7 days), in words), the “change of purity after storage” value is recorded as “No significant change of purity”. For the same substance, the “Area (Mean), Initial Tube” value in data set [2] came to 19.4. The “Area Ratio (Initial/Final Tube, %)” value in data set [2] is 80%. In addition, in data set [2] (after transfer), the “Area (Mean), Final Tube” value stood at 15.6. Moreover, the “HPLC Peak Areas, Final Tube” value in data set [2] (after transfer between 5 polypropylene tubes, Injection 1 and 2) was 16.8 and 14.3. Moreover, the “HPLC Peak Areas, Initial Tube” value in data set [2] (Injection 1 and 2) was 18.8 and 20.0.
